These are literature values, as cited in US20230349903A1, “ASSAYS AND REAGENTS FOR CHARACTERIZATION OF MHCI PEPTIDE BINDING” (priority 2020, published 2023).

For data set [1], the target named is HLA-A*02:03 (Homo sapiens, UniProt P04439, A173T/D140Y/D185E/D98H/E277Q/G131W/G231S/I119V/I121R/I166T/I218V/L180W/L300P/L318F/N151K/N90K/P208A/P217A/Q86G/Q94H/R138H/R169H/T345S). The following applies: IEDB value, purified MHC/competitive/radioactivity, read-out: half maximal inhibitory concentration (IC50); cited from earlier work.
Data set [2] addresses A*26:01 (Homo sapiens, UniProt P04439, A114D/A173T/A270S/D101N/D185E/E277Q/E87N/F33Y/G231S/I121R/I218V/K168Q/L180W/L300P/L318F/P208A/P217A/Q86R/Q94H/R138Q/S129P/T187R/T323A/T345S/V100A/V358M). As to conditions: IEDB value, purified MHC/direct/fluorescence, read-out: dissociation constant KD (~EC50); cited from earlier work.

Take NLFDIPLLTV [Peptide A0203-04]: the IC50 in data set [1] was 0.25 nM.

The Kd is the equilibrium constant for the complex coming apart. Regarding YVIRDLAAM [Peptide A2601-01], the dissociation constant Kd in data set [2] is 1 nM.
